Among the data in ChEMBL document CHEMBL1811821, “Cystic fibrosis: a new target for 4-Imidazo[2,1-b]thiazole-1,4-dihydropyridines” (J Med Chem, 2011) are inhibition values, retold here.

For this experiment, the species on record is Cavia porcellus. Briefly: Negative ionotropic activity in potassium depolarized guinea pig longitudinal smooth muscle assessed as inhibition of calcium-induced contraction at 5 X 10^-6 M. It is filed as functional.
On to `COC(=O)C1=C(C)NC(C)=C(C(=O)OC)C1c1c(Cl)nc2scc(C)n12`, for which the inhibition – broadly, the change of the read-out against control, counted positive when it falls – is 97%.
For `COC(=O)C1=C(C)NC(C)=C(C(=O)OC)C1c1c(-c2ccccc2OC)nc2sccn12`, the inhibition was 88%.
Take `C=CCOC(=O)C1=C(C)NC(C)=C(C(=O)OCC=C)C1c1c(-c2cc(OC)ccc2OC)nc2sccn12`: the inhibition was 96%.
As for `CCOC(=O)C1=C(C)NC(C)=C(C(=O)OCC)C1c1c(Cl)nc2sc(C)cn12`, the inhibition amounted to 94%.
The same measure for `COC(=O)C1=C(C)NC(C)=C(C(=O)OC)C1c1c(C)nc2sc(Cl)cn12`: 96%.
